The term IC50 denotes the concentration needed to halve the response being measured.

Chains of the proteins cited; added tags and fusions are not shown.
UniProt P33261, whole entry: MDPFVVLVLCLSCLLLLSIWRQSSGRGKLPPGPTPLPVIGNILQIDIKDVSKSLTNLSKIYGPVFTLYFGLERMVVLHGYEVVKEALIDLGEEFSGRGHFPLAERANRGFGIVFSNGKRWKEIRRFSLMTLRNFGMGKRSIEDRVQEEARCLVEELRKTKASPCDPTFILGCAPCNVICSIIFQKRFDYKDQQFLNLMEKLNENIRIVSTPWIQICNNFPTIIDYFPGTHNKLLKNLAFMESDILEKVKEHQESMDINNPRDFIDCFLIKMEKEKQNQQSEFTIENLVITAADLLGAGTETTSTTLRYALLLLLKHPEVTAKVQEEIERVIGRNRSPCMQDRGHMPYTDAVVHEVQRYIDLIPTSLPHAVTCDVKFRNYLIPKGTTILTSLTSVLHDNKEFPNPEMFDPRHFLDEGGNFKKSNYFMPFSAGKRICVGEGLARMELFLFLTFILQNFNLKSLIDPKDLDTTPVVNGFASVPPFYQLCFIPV

The results in this text go back to publication PMC6271976, “Inhibition of Human Cytochrome P450 Enzymes by Bacopa monnieri Standardized Extract and Constituents” (Molecules, 2014).

Structures are written as SMILES.

The assay deals with CYP2C19 (Homo sapiens, UniProt P33261). Description: Luminescent P450-Glo recombinant human CYP2C19 inhibition assay. From the text: The inhibitory effects of B. monnieri standardized extract and the constituents bacoside A, bacoside A3, bacopaside II, bacopaside X, bacopasaponin C and bacopaside I on human cytochrome P450 enzyme were examined using an in vitro luminescent assay. The P450-Glo™ substrates are converted by CYP enzymes to a luciferin product that reacts with a Luciferin Detection Reagent to produce light. The amount of light produced is directly proportional to the CYP enzyme activity. The net signals from untreated (added with buffer or solvent) CYP reactions represent total CYP activity (without any inhibition = 100%). […] The test compounds that inhibit CYP enzymes caused a reduction in CYP activity and therefore generated less light/signal. […]
The enzyme assay was performed in 96-well white bottom flat plates (Nunc, Roskilde, Denmark). […] For the “untreated” (the values from these wells represent total CYP activity) and “minus-P450 control” wells (the values from these wells represent the CYP-independent background luminescence of the assay), 12.5 μL of vehicle (1% DMSO) was added. […] Before reading, the plate was incubated at room temperature for 20 min to stabilize the luminescent signal. The luminescence in all of the samples was measured using an Infinite F200 plate reader (Tecan, Männedorf, Switzerland).

As for `Cc1c(C)c2c(c(C)c1O)CCC(C)(COc1ccc(CC3SC(=O)NC3=O)cc1)O2` (stereo not shown) [troglitazone, reference compound], the IC50 was 17.7 µM.
